Experimental data reported in ChEMBL document CHEMBL4145694, “Potent and Selective Tetrahydroisoquinoline Kappa Opioid Receptor Antagonists of Lead Compound (3 R)-7-Hydroxy- N-[(1 S)-2-methyl-1-(piperidin-1-ylmethyl)propyl]-1,2,3,4-tetrahydroisoquinoline-3-carboxamide (PDTic)” (J Med Chem, 2018).

Tests used:
Homo sapiens [1] = species on record: Homo sapiens; assay: Selectivity index, ratio of Ke for antagonist activity at human delta-opioid receptor expressed in CHO cell membranes to Ke for antagonist activity at human kappa-opioid receptor expressed in CHO cell membranes; type: cell-based
Homo sapiens [2] = species on record: Homo sapiens; assay: Selectivity index, ratio of Ke for antagonist activity at human mu-opioid receptor expressed in CHO cell membranes to Ke for antagonist activity at human kappa-opioid receptor expressed in CHO cell membranes; type: cell-based

CC(C)[C@@H](CN1CCCCC1)NC(=O)[C@H]1Cc2ccc(O)cc2CN1
Ratio Ke (Homo sapiens [1]): > 441
Ratio Ke (Homo sapiens [2]): 21
